The assay has as its target CD4-IgG immunoadhesin, wild-type CH3 (human) (UniProt P01730). In words: co-transfection of 293S cells (Ia:H:L DNA 6:1:3), protein A purification, SDS-PAGE, scanning laser densitometry.

In turn, “CD4-IgG immunoadhesin, wild-type CH3 (from UniProt P01730 26-205) (Fc fusion)” gave a % Ia homodimer of the recovered products of 22.5%.
